According to US20070248680A1, “Particles for Inactivating Toxins” (Board of Regents, The University of Texas System, priority 2005, published 2007):

Assay: Persistence of FITC-BSA tagged particles in blood after intravenous introduction (fluorometry)
Assay type: in vivo
Settings: Balb/C mice
Description: One feature of the present invention is that a particle preparation of the present invention is capable of remaining in the host for a length of time, longer than proteins, antibodies, vaccines, or antimicrobials are known to last in a mammalian host. […] Particle were tagged by conjugating with FITC-labeled bovine serum albumin (BSA) protein. BSA-tagged particles or BSA alone were introduced intravenously into two groups of Balb/C mice (at approximately 100 micrograms of BSA per 1 mg of particles; each group having at least 5 mice) which was followed by the collection of blood samples from each mouse at specific time points using retro-orbital blood collection methods. The amount of BSA present in each sample was assessed by fluorometry. The tagged particles in FIG. 5A were FITC-BSA conjugated to NIPA particles of about 5.0 micrometers (typical diameter). […] In addition, greater than 20% of the BSA-NIPA particles were still present in the blood after two weeks.
In FIG. 5B, particles were HPC (approximately 5.0 micrometers, typical diameter) conjugated to BSA which were introduced intravenously into Balb/C mice and compared with mice injected with FITC-labeled BSA.

Substance: bovine serum albumin [BSA, reference compound]
- time present in the blood (FITC label, FIG. 5A): less than two
- presence of labeled BSA in the host by day 2 (day 2, FIG. 5B): virtual absence
